Reference: patent US7488721B2, “Real time methylumbelliferone-based assay” (McMaster University, priority 2004, dated 2009)

Chains of the proteins cited; added tags and fusions are not shown. Residues count along the entry.
UniProt P06865, 23-74 partner limits assumed: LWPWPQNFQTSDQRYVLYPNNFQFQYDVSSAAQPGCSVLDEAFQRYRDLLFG
UniProt P06865, 89-529: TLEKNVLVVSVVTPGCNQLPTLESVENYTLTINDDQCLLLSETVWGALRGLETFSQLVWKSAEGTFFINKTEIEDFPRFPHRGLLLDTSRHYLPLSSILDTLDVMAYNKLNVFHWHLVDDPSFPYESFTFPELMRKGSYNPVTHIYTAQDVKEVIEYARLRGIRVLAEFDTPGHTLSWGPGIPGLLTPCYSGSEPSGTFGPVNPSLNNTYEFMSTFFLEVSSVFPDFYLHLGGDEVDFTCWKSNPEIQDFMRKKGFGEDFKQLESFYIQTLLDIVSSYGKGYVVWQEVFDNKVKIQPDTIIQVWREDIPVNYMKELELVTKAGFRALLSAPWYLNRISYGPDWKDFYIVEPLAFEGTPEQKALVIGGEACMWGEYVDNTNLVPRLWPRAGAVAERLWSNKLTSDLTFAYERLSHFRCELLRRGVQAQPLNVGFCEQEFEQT
UniProt P07686, 50-107 partner limits assumed: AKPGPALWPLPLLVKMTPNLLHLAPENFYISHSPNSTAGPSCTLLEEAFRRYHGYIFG
UniProt P07686, 315-556 limits assumed: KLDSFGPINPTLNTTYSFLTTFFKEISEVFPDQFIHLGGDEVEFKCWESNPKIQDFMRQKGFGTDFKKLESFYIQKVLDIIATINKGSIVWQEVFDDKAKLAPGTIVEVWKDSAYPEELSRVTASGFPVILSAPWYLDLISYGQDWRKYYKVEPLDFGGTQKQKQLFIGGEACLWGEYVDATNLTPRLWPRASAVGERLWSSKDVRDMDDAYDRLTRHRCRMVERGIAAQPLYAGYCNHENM
UniProt P07686, 122-311 limits assumed: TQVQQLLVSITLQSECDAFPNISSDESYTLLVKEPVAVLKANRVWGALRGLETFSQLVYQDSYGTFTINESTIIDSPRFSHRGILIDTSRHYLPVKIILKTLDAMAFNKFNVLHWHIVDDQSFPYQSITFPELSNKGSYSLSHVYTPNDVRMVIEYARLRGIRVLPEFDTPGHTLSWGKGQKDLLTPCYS

Target: Human N-acetyl-β-hexosaminidase A (HexA) (Homo sapiens, UniProt P06865+P07686)
Test: biochemical

CCc1nc(N)nc(N)c1-c1ccc(Cl)cc1 [pyrimethamine, reference compound]
IC50: ~600 nM
